Legend:
[1] = system: Bacillus thuringiensis P.1.IPS-80 serovar israelensis; assay: Growth inhibition of Gram positive bacteria: IC50 measurements; conditions: 4 h, read-out: IC50 against Bacillus thuringiensis P.1.IPS-80 serovar israelensis
E. coli DH5a = conditions: niclosamide 40 μM down to 20 nM

SMILES | IC50 [1] [µM] | Resistance of DH5a compared with 7KO (E. coli DH5a)
CC(=O)Oc1ccccc1C(=O)Nc1ncc([N+](=O)[O-])s1 [Nitazoxanide, 2-acetyloxy-N-(5-nitro 2-thiazolyl)benzamide] | 8.67 | –
O=C(Nc1ccc([N+](=O)[O-])cc1Cl)c1cc(Cl)ccc1O [Niclosamide, N-(2′-chloro-4′-nitrophenyl)-5-chlorosalicylamide] | 0.139 | more resistant to niclosamide than the 7KO strain
